Experimental data taken from patent publication US12636284B2, “Compositions for use in the prevention and/or treatment of intellectual disability and neurodegenerative diseases in a subject with down syndrome” (UNIVERSITA' DEGLI STUDI DI ROMA “LA SAPIENZA”, priority 2021, dated 2026).

Amino acid sequences for entries named in this document (tags omitted). A change or cut given only in a name is not applied to a line headed by its entry.
UniProt P28843: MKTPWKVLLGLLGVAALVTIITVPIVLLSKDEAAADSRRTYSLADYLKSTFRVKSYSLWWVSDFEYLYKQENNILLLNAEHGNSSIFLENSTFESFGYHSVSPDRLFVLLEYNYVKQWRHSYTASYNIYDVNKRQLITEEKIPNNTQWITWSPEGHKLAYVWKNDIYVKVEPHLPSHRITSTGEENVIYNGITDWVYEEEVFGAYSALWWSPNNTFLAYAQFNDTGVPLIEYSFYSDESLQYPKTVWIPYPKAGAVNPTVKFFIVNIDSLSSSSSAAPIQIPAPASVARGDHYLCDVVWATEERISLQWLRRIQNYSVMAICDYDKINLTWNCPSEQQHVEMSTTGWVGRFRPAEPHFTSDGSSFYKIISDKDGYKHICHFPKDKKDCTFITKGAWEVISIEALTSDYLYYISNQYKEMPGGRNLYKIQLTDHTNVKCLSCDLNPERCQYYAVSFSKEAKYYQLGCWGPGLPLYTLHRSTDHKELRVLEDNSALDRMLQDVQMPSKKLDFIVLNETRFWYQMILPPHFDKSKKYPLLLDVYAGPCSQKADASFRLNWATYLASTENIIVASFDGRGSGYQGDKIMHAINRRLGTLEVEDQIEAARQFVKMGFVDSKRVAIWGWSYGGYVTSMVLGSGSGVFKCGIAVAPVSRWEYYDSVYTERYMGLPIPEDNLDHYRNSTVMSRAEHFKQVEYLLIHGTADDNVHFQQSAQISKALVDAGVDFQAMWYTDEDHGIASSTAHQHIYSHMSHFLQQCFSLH

Experiments:
DPP4 enzyme [1] = biological target: DPP4 enzyme (Mus musculus, UniProt P28843); test: DPP4 enzyme activity in primary hippocampal neurons isolated from Ts2Cje mice
DPP4 enzyme [2] = conditions: end of 21 days intranasal treatment

| Compound | activity of the DPP4 enzyme in Ts2Cje neurons (DPP4 enzyme [1]) | DPP4 enzyme activity at the hippocampal level (DPP4 enzyme [2]; hippocampus) | DPP4 enzyme activity at the peripheral level (DPP4 enzyme [2]; liver and plasma) |
| --- | --- | --- | --- |
| N[C@@H](CC(=O)N1CCn2c(nnc2C(F)(F)F)C1)Cc1cc(F)c(F)cc1F [sitagliptin, (R)-4-oxo-4-[3-(trifluoromethyl)-5,6-dihydro[1,2,4]triazole[4,3-a]pyrazin-7(8H)-yl]-1-(2,4,5-trifluorophenyl)butan-2-amine] | significant inhibition | reduce activation of the DPP4 enzyme at the hippocampal level | without promoting significant effects at the peripheral level |
| Cn1c(=O)cc(N2CCC[C@@H](N)C2)n(Cc2ccccc2C#N)c1=O [alogliptin] | significant inhibition | – | – |
